System: MDA-MB-231 cells
Experiment: Half-life of biotin-labeled peptides in living cells (Western blotting)
Type: in vitro ADME, human
Details: biotin-labeled peptide 20 µM for 2 h, then fresh medium, cells collected 0-48 h, β-actin loading control
Procedure: SDS-PAGE gel electrophoresis and Coomassie brilliant blue staining were performed to measure peptide stability. […] Cells were collected at different post-treatment time points (0, 1, 2, 4, 8, 16, 24, 36, 48 h). […] D The docking of peptide P22 (106–126) to the FOXM1 C-terminus (PDB ID 6OSW) was created by Rosetta FlexPepDock and PyMOL. Left, the interface of peptide-protein interaction, the peptide was shown in cyan, and the C-terminus of FOXM1 was shown according to its electrostatic potential. Right, hydrogen bonds are formed by residues at the interface of peptide and protein interaction. […] Streptavidin magnetic beads were added to lysates to pull down the biotin-peptides/protein complexes. […] M1-21mut was used as the control.

For `CC[C@@H](C)[C@@H](NC(=O)[C@@H](CC(C)C)NC(=O)[C@H](NC(=O)[C@@H](CO)NC(=O)[C@@H](CS)NC(=O)CNC(=O)CNC(=O)[C@@H](C)NC(=O)[C@H]1CCCN1C(=O)[C@H](NC(=O)[C@@H](CCC(N)=O)NC(=O)[C@H]1CCCN1C(=O)[C@H]1CCCN1C(=O)CNC(=O)[C@@H](CC(C)C)NC(=O)[C@@H](CCCNC(=N)N)NC(=O)[C@H]1CCCN1C(=O)[C@@H](CCC(N)=O)NC(=O)[C@H](NC(=O)[C@H](N)CCC(N)=O)[C@H](C)O)[C@H](C)O)[C@H](C)CC)C(=O)N[C@H](Cc1ccccc1)C(=O)N[C@H](CCCNC(=N)N)C(=O)N[C@H](CCCNC(=N)N)C(=O)N[C@H](CCCNC(=N)N)C(=O)N[C@H](CCC(N)=O)C(=O)N[C@H](CCCNC(=N)N)C(=O)N[C@H](CCCNC(=N)N)C(=O)N[C@H](CCCCN)C(=O)N[C@H](CCCCN)C(=O)N[C@H](CCCNC(=N)N)C(=O)NCC(=O)O` [M1-21], the “Half-life in living MDA-MB-231 cells” value was 11.5 h.
